Results on one substance are retold here after paper doi:10.1101/2022.08.27.505235v1.

The test system of the data set is O=[N+]([O-])c1ccc(O[C@@H]2O[C@H](CO)[C@@H](O)[C@H](O)[C@H]2O)cc1. Nature of the data set: purified protein. To be noted: 50 mM potassium phosphate, pH 7, 49 °C, no added glucose.

For orientation: Km means the substrate concentration at which the rate is half of its maximum. The term kcat denotes the maximal rate divided by the concentration of active sites.

On to “β-glucosidase (H0HC94) (Agrobacterium tumefaciens A6; Q327A)”, for which the Michaelis constant (Km) came out at 2100 ± 100 µM and the kcat is 276.6 ± 2.3 s⁻¹.
